# scFv variants of Ab-14 (heavy chain) against a SARS-CoV-2 spike peptide

Target peptide (SARS-CoV-2 spike, HR2 region): PDVDLGDISGINAS

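AAYL49 was designed without a model: most single CDR substitutions and a random sample of double and triple ones. The assay is AlphaSeq: two haploid yeast populations carry antibody and antigen on their surface. After mating in shaken culture at 30 °C for 16 h, diploids were selected and their barcode pairs sequenced. Read counts were normalised to the haploid input and turned into Kd by a linear fit to BCL2-family pairs of known affinity, for each replicate. Mating was done three times.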

Parent scFv Ab-14: VH joined to VL by a 15-residue (Gly4Ser)3 linker. Changes lie in the heavy chain CDRs alone.
VH: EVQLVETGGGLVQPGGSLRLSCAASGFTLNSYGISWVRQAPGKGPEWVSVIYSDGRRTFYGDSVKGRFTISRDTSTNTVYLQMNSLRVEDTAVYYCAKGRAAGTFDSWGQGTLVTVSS
VL: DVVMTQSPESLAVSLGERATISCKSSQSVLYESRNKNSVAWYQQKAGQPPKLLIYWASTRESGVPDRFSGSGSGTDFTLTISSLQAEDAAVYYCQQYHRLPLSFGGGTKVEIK

Each variant is given by its three heavy chain CDRs, as the data file delimits them; those of the parent are GFTLNSYGIS, VIYSDGRRTFYGDSVK, GRAAGTFDS. Affinities are written as log10 Kd with Kd in nM; a lower number is a better binder. The mean shown is taken over the replicates in which the pair was detected. "nd" marks a missing value. The strain was present, yet no cells mated with the target were sequenced in that replicate, which points to weak or no binding. Empty control strains, which show no peptide, gave a signal in 15% of pairings with library AAYL49; the median was 4.06 and 95% of these signals were weaker than 2.83. No background was subtracted. The control count says in how many pairings with the empty strains this scFv gave a signal.

With GFTLESYGIS | VIYSDGRRTFYGDSVK | GMDAGTFDS the result was 2.54, 2.57, 2.56 (mean 2.56; controls 7 of 9).
With GFTLNSYGIS | VIYSDGRRTFYGDSKK | GRAAECFDS the result was 3.11, nd, 2.99 (mean 3.05; controls 0 of 9).
With GTTLNSYGIS | VIYSDTRRTFYGDSVK | GRAVGTFDS the result was nd, nd, 3.62 (controls 3 of 9).
With GFTLNSYGIS | VIYSDGRRTFYGDSVY | GRAAGTFDS the result was 1.41, 1.34, 1.76 (mean 1.50; controls 1 of 9).
With GFALNSYGIS | VIYSDGRRTFYSDSVK | GRAAGTFDK the result was 2.75, 2.49, nd (mean 2.62; controls 0 of 9).
With GVTNNSYGIS | VIYSDGRRTFYGDSVK | GRAAGTYDS the result was nd, nd, nd (controls 2 of 9).
With GFTLNSYGIS | VIPSDGRRTFYGDSVK | LRAAGTFAS the result was nd, nd, nd (controls 2 of 9).
With GFTLCSYGIS | VIYSDYRRTFYGQSVK | GRAAGTFDS the result was nd, nd, nd (controls 0 of 9).
With GQTLNSYGIS | VIYSDGCRTFYGDSVK | GRAMGTFDS the result was nd, nd, 5.74 (controls 5 of 9).
With GFTLNSYGIS | VIYSDGRRTFYGDQVA | GRAAGFFDS the result was nd, 3.89, nd (controls 2 of 9).
With GFTLNSYGIS | VIYSDGRRTFDGDSVK | KRAAGTFGS the result was nd, nd, nd (controls 1 of 9).
With GFTLNSYGIS | VIYSDGRRTHYGDSDK | GRAAGTFMS the result was 5.01, nd, nd (controls 1 of 9).
With GFTLNSYGIS | VIYQDERRTFYGDSVK | GRAAGTFDS the result was nd, nd, nd (controls 0 of 9).
With GFTLNSIGIS | VIYLDGCRTFYGDSVK | GRAAGTFDS the result was 6.21, 4.26, nd (mean 5.24; controls 1 of 9).
With GFTLNSYGIS | VIYSDGRRYFYGDSVK | GAAAGTFDS the result was 3.15, 3.11, 3.54 (mean 3.27; controls 5 of 9).
With GFTLNSYGIS | VIYSDGRRTFYGDSTK | GRAAGQQDS the result was nd, nd, nd (controls 2 of 9).
With AFTLNSYVIS | VIYSDGRRTFYGASVK | GRAAGTFDS the result was nd, nd, nd (controls 0 of 9).
With GFPLNSYGIS | VVASDGRRTFYGDSVK | GRAAGTFDS the result was nd, nd, 4.44 (controls 1 of 9).
With GFTLNEYGIS | VNYSDGRRTFYGDSVM | GRAAGTFDS the result was nd, nd, nd (controls 1 of 9).
With GFTLNSYGIS | VIYSDGRRWFYGDSVT | GREAGTFDS the result was 3.45, 2.48, nd (mean 2.97; controls 3 of 9).
With GFTLNSYGIS | VIYSDGRRTFKGHSVK | GRAAGTFYS the result was nd, nd, nd (controls 0 of 9).
With GFTLNSYKIS | VIYSDGRRTFYGHSVC | GRAAGTFDS the result was nd, nd, nd (controls 1 of 9).
With GFRLNSYGIC | VIYSDGRRTFYGPSVK | GRAAGTFDS the result was 4.19, nd, nd (controls 4 of 9).
With IFLLNSYGIS | VCYSDGRRTFYGDSVK | GRAAGTFDS the result was nd, nd, 4.69 (controls 5 of 9).
With SFTLNSYGIS | VIYSDGRRTFYGDSVK | GWAAGTFDP the result was 2.26, 1.88, 2.13 (mean 2.09; controls 0 of 9).
With GFTLNRVGIE | VIYSDGRRTFYGDSVK | GRAAGTFDS the result was nd, nd, nd (controls 0 of 9).
With IFTLNSYGIS | VIYSDGRRTFYGDSVK | GRAAFTFDM the result was 2.08, 2.31, 2.54 (mean 2.31; controls 5 of 9).
With GFTLNSYDIS | VLYSDGRRTFYGDSVD | GRAAGTFDS the result was nd, nd, nd (controls 1 of 9).
With GFTLNSYGIS | PIYSMSRRTFYGDSVK | GRAAGTFDS the result was 4.58, 3.87, 4.03 (mean 4.16; controls 2 of 9).
With GFTLNSYGIS | RIYSDGRRTFYGDSVK | GRAAGLFDN the result was nd, nd, nd (controls 0 of 9).
With GFTLQSYGIS | VIYMDGRRTFYGDSVK | GRAAGTFDR the result was nd, nd, nd (controls 0 of 9).
With GFTLVSYLIS | VIYSDGRKTFYGDSVK | GRAAGTFDS the result was nd, nd, nd (controls 0 of 9).
With GFTLNSYGIS | VIYSDGRRTFYGDSVK | GRHVGTFDS the result was 1.36, 1.33, 1.75 (mean 1.48; controls 0 of 9).
With GFTINSYGIS | VIESDDRRTFYGDSVK | GRAAGTFDS the result was nd, 5.54, 5.87 (mean 5.70; controls 6 of 9).
With GFTLNVSGIS | VIYSDGRITFYGDSVK | GRAAGTFDS the result was nd, 3.72, 4.38 (mean 4.05; controls 2 of 9).
With GFTLNSTGIS | VIYSDGRRTPYGDSVK | GIAAGTFDS the result was nd, nd, nd (controls 0 of 9).

Data: MIT Lincoln Laboratory AlphaSeq set, Engelhart et al. 2022, doi:10.1038/s41597-022-01779-4, as distributed in FLAb.